Values of other authors as cited in US20150366901A1, “Methods of Treating Heart Failure” (The Trustees of the University of Pennsylvania, priority 2013, published 2015).

System: healthy volunteers
Conditions: ingestion of 8 mmol, 3 hours post-ingestion

plasma nitrates: increased plasma nitrates
Substance: inorganic nitrate
